Values quoted from earlier work in US20030008014A1, “Truncated apolipoprotein B-containing lipoprotein particles for delivery of compounds to tissues or cells” (priority 2001, published 2003).

System: HER2-positive breast tumors
Conditions: simultaneous administration with paclitaxel

For “Herceptin™: anti-HER2 monoclonal antibody”, the “efficacy of the combination versus single agents” value is given as “greater efficacy than either agent administered alone”.
